The values below come from patent US20250313563A1, “GLYCOGEN SYNTHASE KINASE 3 INHIBITORS AND USES THEREOF” (The Broad Institute, Inc., priority 2022, published 2025).

The chains behind the UniProt entries cited, without tags or fusion partners.
UniProt P49841, whole entry: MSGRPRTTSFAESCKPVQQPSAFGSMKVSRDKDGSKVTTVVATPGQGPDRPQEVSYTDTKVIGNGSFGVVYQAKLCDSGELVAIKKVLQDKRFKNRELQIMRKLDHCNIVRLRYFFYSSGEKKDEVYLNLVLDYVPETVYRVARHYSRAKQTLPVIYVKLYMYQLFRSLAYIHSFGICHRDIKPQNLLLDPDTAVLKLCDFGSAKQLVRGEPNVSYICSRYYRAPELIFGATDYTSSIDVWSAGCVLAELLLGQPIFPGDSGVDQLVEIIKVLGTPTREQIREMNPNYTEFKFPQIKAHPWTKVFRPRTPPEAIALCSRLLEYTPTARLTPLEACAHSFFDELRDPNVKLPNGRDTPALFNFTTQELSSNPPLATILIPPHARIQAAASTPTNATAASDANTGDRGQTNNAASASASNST
UniProt P49840, whole entry: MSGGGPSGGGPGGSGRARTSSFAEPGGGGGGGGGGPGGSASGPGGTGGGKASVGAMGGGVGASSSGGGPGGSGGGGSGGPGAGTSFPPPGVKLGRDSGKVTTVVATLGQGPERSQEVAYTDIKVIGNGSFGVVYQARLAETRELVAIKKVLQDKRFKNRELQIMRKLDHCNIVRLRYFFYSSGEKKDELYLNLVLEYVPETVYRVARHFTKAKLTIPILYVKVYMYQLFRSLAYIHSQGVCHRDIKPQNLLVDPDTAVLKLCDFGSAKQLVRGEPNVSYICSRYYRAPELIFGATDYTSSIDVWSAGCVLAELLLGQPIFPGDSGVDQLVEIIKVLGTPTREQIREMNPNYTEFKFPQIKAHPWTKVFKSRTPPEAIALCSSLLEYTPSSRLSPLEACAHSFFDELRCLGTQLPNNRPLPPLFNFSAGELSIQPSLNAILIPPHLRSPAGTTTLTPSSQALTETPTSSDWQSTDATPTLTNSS

Read-outs that look alike come from different tables or passages of the source. Some results are limits rather than exact numbers.

For test [1], the target named is GSK3b (GST-full length GSK3b) (Homo sapiens (Human), UniProt P49841). The experiment in a line: GSK3b TR-FRET kinase assay. It counts as biochemical.
The target in test [2] is GSK3α (GST-full length GSK3α) (Homo sapiens (Human), UniProt P49840). The experiment in a line: GSK3α TR-FRET kinase assay. In kind it is biochemical.
Setting [3] is: read-out: GSK3-B TR-FRET BIOCHEMICAL (TR-FRET);, 1 nM GSK3b, 2 μM ATP, 30 minute preincubation, Table 16.
Where [4] appears, read: read-out: GSK3-A TR-FRET BIOCHEMICAL (TR-FRET);, 1 nM GSK3α, 4 μM ATP, 30 minute preincubation, Table 16.
The mark [5] stands for this setting: read-out: GSK3-B TR-FRET BIOCHEMICAL (TR-FRET), IC50, 1 nM GSK3b, 2 μM ATP, 30 minute preincubation.
The mark [6] stands for this setting: read-out: GSK3-A TR-FRET BIOCHEMICAL (TR-FRET), IC50, 1 nM GSK3α, 4 μM ATP, 30 minute preincubation.
Setting [7] is: read-out: GSK3-B TR-FRET BIOCHEMICAL (TR-FRET), IC50, 1 nM GSK3b, 2 μM ATP, 30 minute preincubation (Table 16).
The mark [8] stands for this setting: read-out: GSK3-A TR-FRET BIOCHEMICAL (TR-FRET), IC50, 1 nM GSK3α, 4 μM ATP, 30 minute preincubation (Table 16).
Setting [9] is: read-out: GSK3-B (TR-FRET 1 mM ATP), GMean, IC50, 1 mM ATP, geometric mean.
The mark [10] stands for this setting: read-out: GSK3-B TR-FRET BIOCHEMICAL (TR-FRET), GMean, IC50, 1 nM GSK3b, 2 μM ATP, 30 minute preincubation, geometric mean.
[11] abbreviates: read-out: GSK3-A (TR-FRET 1 mM ATP), GMean, IC50, 1 mM ATP, geometric mean.
[12] abbreviates: read-out: GSK3-A TR-FRET BIOCHEMICAL (TR-FRET), GMean, IC50, 1 nM GSK3α, 4 μM ATP, 30 minute preincubation, geometric mean.

In the case of `CC[C@]1(c2cccc(-c3ccnc(O)c3)c2)C2=C(CC(C)(C)CC2=O)Nc2n[nH]cc21`, the IC50 in test [1] (setting [3]) and in test [2] (setting [4]) was above 5000 nM each time.
For the compound `CCC1(c2cccc(N3CCCC3)c2)C2=C(CC(C)(C)NC2=O)Nc2n[nH]cc21` (stereo not drawn), the IC50 in test [1] (setting [5]) lay within 1000 to 5000 nM; in test [2] (setting [6]), 100 to 1000 nM.
Consider `CCCn1nccc1-c1cccc(C2(CC)C3=C(CC(C)(C)CC3=O)Nc3n[nH]cc32)c1` (stereo not drawn), for which the IC50 in test [1] (setting [7]) and in test [2] (setting [8]) was below 100 nM each time.
As to `CC[C@@]1(c2cccc(-c3ccnc4c3CCC4)c2)C2=C(CC(C)(C)NC2=O)Nc2n[nH]c(C(F)(F)F)c21`, the IC50 in test [1] (setting [9]) is 1000 to 5000 nM; in test [1] (setting [10]), below 100 nM; in test [2] (setting [11]) it was 100 to 1000 nM; in test [2] (setting [12]) it was below 100 nM.
Turning to `CC[C@@]1(c2cccc(C(F)(F)F)c2)C2=C(Nc3n[nH]cc31)[C@@H](C)CN(C)C2=O`, the IC50 in test [1] (setting [5]) and in test [2] (setting [6]) was below 100 nM each time.
Consider `CC[C@@]1(c2cccc(N(C)c3ncccn3)c2)C2=C(CC(C)(C)NC2=O)Nc2n[nH]cc21` [Compound 943964], for which the IC50 was above 5000 nM in test [1] (setting [10]) and 100 to 1000 nM in test [2] (setting [12]).
Turning to `CC[C@@]1(c2cccc(-c3ccnn3C)c2)C2=C(CC(C)(C)NC2=O)Nc2n[nH]cc21`, the IC50 in test [1] (setting [9]) was 1000 to 5000 nM; in test [1] (setting [5]), below 100 nM; in test [2] (setting [11]), 100 to 1000 nM; in test [2] (setting [6]) it was below 100 nM.
Consider `CC[C@]1(c2cccc(N3CCOCC3)c2)C2=C(CC(C)(C)CC2=O)Nc2n[nH]c(C)c21`, for which the IC50 in test [1] (setting [7]) and in test [2] (setting [8]) was below 100 nM each time.
Turning to `CC[C@@]1(c2cccc([C@@H](C)c3ncccn3)c2)C2=C(CC(C)(C)CC2=O)Nc2n[nH]cc21`, the IC50 in test [1] (setting [9]) is 1000 to 5000 nM; in test [1] (setting [3]) it was below 100 nM; in test [2] (setting [11]), 100 to 1000 nM; in test [2] (setting [4]), below 100 nM.
Regarding `CC[C@]1(c2cccc(C)c2)C2=C(CC3(CCCC3)CC2=O)Nc2n[nH]cc21`, the results for the IC50 in test [1] (setting [10]) and in test [2] (setting [12]) were 100 to 1000 nM and below 100 nM, respectively.
As for `CC[C@]1(c2cccc(-c3ccnn3C)c2)C2=C(CC3(CCC3)NC2=O)Nc2n[nH]cc21`, the IC50 in test [1] (setting [9]) is 1000 to 5000 nM; in test [1] (setting [10]), below 100 nM; in test [2] (setting [11]), 100 to 1000 nM; in test [2] (setting [12]), below 100 nM.
As to `CC[C@]1(c2cccc(-c3cn(C)nc3C)c2)C2=C(CC(C)(C)NC2=O)Nc2n[nH]c(C)c21`, the IC50 lay within 1000 to 5000 nM in test [1] (setting [5]) and 100 to 1000 nM in test [2] (setting [6]).
In the case of `CC[C@@]1(c2cccc(-c3ccnc(OC)c3)c2)C2=C(CC(C)(C)CC2=O)Nc2n[nH]c(C)c21`, the IC50 in test [1] (setting [7]) fell in the range of 1000 to 5000 nM; in test [2] (setting [8]) it was 100 to 1000 nM.
On to `CC(C)(C)Cc1[nH]nc2c1[C@]1(CCc3c(F)cccc31)C1=C(CC(C)(C)CC1=O)N2`, for which the IC50 in test [1] (setting [10]) and in test [2] (setting [12]) was below 100 nM each time.
`CC[C@]1(c2cccc(Br)c2)C2=C(C[C@H](C(F)(F)F)CC2=O)Nc2n[nH]cc21`: the IC50 in test [1] (setting [10]) was 100 to 1000 nM; in test [2] (setting [12]) it was below 100 nM.
For the compound `CCC1(c2cccc(C(F)(F)F)c2)C2=C(Nc3n[nH]cc31)C(C)CNC2=O` (stereo not drawn), the IC50 in test [1] (setting [5]) is 100 to 1000 nM; in test [2] (setting [6]) it was below 100 nM.
On to `CC[C@]1(c2cccc(-c3ccnc(C(F)(F)F)c3)c2)C2=C(CC(C)(C)CC2=O)Nc2n[nH]cc21`, for which the IC50 in test [1] (setting [3]) and in test [2] (setting [4]) was above 5000 nM in each case.
Regarding `CC[C@@]1(c2cc(N(C)C(C)=O)ccc2F)C2=C(CC(C)(C)CC2=O)Nc2n[nH]cc21`, the IC50 in test [1] (setting [7]) was 100 to 1000 nM; in test [2] (setting [8]), below 100 nM.
In the case of `CCC1(c2cccc(-c3ccnc(C)c3OC)c2)C2=C(CC(C)(C)NC2=O)Nc2n[nH]cc21` (stereo not drawn), the IC50 is 100 to 1000 nM in test [1] (setting [10]) and below 100 nM in test [2] (setting [12]).
For `CC[C@]1(c2cccc(S(C)(=O)=O)c2)C2=C(CC(C)(C)NC2=O)Nc2n[nH]c(C)c21`, the IC50 in test [1] (setting [9]), in test [1] (setting [10]), in test [2] (setting [11]) and in test [2] (setting [12]) was below 100 nM in each case.
In the case of `CCc1cc(-c2cccc(C3(CC)C4=C(CC(C)(C)CC4=O)Nc4n[nH]cc43)c2)ccn1` (stereo not drawn), the figures for the IC50 in test [1] (setting [3]) and in test [2] (setting [4]) were 100 to 1000 nM and below 100 nM, respectively.
For `CC[C@]1(c2cccc(Oc3ncccn3)c2)C2=C(CC(C)(C)NC2=O)Nc2n[nH]c(Cl)c21`, the IC50 in test [1] (setting [9]) was 100 to 1000 nM; in test [1] (setting [7]) it was below 100 nM; in test [2] (setting [11]), below 100 nM; in test [2] (setting [8]) it was below 100 nM.
As to `CC[C@]1(c2cccc(-c3ccnc(C)c3Cl)c2)C2=C(CC(C)(C)NC2=O)Nc2n[nH]cc21`, the IC50 is 1000 to 5000 nM in test [1] (setting [9]), below 100 nM in test [1] (setting [10]), 100 to 1000 nM in test [2] (setting [11]) and below 100 nM in test [2] (setting [12]).
